The values below come from ChEMBL document CHEMBL1136643, “Identification of a novel series of selective 5-HT7 receptor antagonists” (Bioorg Med Chem Lett, 2003).

By UniProt entry, the sequences of proteins in these tests, tags left out.
UniProt P28223, whole entry: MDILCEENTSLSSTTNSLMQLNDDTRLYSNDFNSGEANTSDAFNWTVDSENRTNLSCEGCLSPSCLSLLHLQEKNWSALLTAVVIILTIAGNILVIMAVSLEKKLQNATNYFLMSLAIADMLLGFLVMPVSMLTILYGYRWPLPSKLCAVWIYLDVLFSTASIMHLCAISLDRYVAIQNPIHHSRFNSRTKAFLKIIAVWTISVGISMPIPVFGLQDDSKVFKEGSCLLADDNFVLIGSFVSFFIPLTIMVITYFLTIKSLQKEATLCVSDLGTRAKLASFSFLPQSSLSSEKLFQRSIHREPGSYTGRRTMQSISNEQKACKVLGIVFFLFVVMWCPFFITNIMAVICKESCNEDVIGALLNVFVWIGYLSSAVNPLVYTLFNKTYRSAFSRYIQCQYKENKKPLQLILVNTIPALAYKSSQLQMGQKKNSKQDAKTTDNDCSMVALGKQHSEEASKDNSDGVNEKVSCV
UniProt P34969, whole entry: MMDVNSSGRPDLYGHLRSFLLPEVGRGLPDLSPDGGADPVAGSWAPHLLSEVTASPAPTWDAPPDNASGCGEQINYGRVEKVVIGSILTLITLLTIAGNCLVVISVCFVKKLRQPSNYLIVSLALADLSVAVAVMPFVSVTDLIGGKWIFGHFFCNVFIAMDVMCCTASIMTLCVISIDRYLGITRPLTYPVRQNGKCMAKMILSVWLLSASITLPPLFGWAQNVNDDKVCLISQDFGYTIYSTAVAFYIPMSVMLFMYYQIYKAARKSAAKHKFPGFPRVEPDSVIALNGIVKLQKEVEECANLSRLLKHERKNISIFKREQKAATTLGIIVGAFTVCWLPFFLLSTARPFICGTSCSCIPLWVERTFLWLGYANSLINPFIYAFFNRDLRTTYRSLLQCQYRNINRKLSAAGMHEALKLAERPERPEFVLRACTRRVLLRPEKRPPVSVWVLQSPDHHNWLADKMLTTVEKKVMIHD

Experiment [1] deals with 5-hydroxytryptamine receptor 2A (Homo sapiens, UniProt P28223). Nature of the experiment: Binding affinity at human cloned 5-hydroxytryptamine 2A receptor.
Experiment [2] has as its target 5-hydroxytryptamine receptor 7 (Homo sapiens, UniProt P34969). The experiment is described as follows: Binding affinity at human cloned 5-hydroxytryptamine 7 receptor.

Only a part of the results on these compounds is given; other tests are left out.

Take `O=C1c2ccccc2CCCN1CCN1CCC(N2C(=O)Cc3ccccc32)CC1`: the Log Ki in experiment [1] is -6.65; in experiment [2], -7.43.
The matching figures for `O=C1c2ccccc2CCCN1CCN1CCC(N2C(=O)Cc3cc(F)ccc32)CC1`: -7.37 and -8.16.
